The text below walks through data of ChEMBL document CHEMBL2177071, “The effect of Pro(2) modifications on the structural and pharmacological properties of endomorphin-2” (J Med Chem, 2012).

Protein sequences, listed by entry. Tags and fused reporters are not part of them.
UniProt P33535, whole entry: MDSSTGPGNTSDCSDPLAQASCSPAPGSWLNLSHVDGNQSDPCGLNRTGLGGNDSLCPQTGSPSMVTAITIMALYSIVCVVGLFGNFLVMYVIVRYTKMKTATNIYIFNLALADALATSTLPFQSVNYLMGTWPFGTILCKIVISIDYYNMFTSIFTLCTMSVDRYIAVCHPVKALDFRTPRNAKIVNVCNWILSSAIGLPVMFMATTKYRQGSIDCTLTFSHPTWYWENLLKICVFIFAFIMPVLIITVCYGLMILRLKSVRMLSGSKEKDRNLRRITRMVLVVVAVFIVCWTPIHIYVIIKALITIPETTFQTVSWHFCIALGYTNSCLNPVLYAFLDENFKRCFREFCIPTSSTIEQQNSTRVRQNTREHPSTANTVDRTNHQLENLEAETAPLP

The target in the test is Mu-type opioid receptor (Rattus norvegicus, UniProt P33535). In words: Agonist activity at mu opioid receptor in Wistar rat brain membranes after 60 mins by [35S]GTPgammaS binding assay. In kind it is functional, cell membranes, Membrane.

As for `C[C@@H](NC(=O)[C@@H](N)Cc1ccc(O)cc1)C(=O)NCC(=O)N(C)[C@@H](Cc1ccccc1)C(=O)NCCO` [DAMGO], the midpoint of the response, the EC50, lay at 485 nM.
